The values below come from paper PMC5512577 (2016).

The target in this test is phosphodiesterase 6 delta subunit (PDE6δ), N-terminal histidine-tagged (UniProt O43924). Put plainly: FP; mantGppNHp-loaded Arl; stopped-flow.

B1: full-length Arl3, C-terminal histidine-tagged, bound to GppNHp or mantGppNHp (natural protein)
chain: MGLLSILRKLKSAPDQEVRILLLGLDNAGKTTLLKQLASEDISHITPTQGFNIKSVQSQGFKLNVWDIGGQRKIRPYWRSYFENTDILIYVIDSADRKRFEETGQELTELLEEEKLSCVPVLIFANKQDLLTAAPASEIAEGLNLHTIRDRVWQIQSCSALTGEGVQDGMNWVCKNVNAKKK
Molecule B1 displayed a koff of 0.035 s⁻¹.
